Laboratory results published in PubChem BioAssay AID493221 (Johns Hopkins Ion Channel Center, 2011).
Only a part is listed here, and it is no random draw. Calls of active or inactive are those of the source.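 Rule for the calls: active = choline transporter activity left, mean of duplicates at 10 µM, below buffer-only control mean minus 3 SD; inactive = the rest.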

The chains behind the UniProt entries cited, without tags or fusion partners. Where a name states a change or a piece, a line headed by the entry shows the natural chain unless it says otherwise.
UniProt Q9GZV3, whole entry, stated change not applied: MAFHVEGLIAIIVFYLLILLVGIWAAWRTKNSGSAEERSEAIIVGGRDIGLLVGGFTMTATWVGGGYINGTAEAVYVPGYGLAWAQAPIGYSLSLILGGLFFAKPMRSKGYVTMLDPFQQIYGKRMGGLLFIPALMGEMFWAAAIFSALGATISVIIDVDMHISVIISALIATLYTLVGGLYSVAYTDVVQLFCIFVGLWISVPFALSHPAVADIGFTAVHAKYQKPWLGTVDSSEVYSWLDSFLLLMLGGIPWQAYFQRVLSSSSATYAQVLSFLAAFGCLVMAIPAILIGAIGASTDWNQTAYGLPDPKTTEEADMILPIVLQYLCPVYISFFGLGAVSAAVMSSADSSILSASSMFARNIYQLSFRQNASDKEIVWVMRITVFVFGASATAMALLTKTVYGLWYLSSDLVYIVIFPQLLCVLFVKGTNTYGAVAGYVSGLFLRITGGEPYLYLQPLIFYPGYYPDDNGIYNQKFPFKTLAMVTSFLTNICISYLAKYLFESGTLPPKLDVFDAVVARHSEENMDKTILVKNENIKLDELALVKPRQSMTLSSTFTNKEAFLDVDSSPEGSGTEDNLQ

target: High affinity choline transporter 1 (Homo sapiens) (UniProt Q9GZV3); assay: human choline transporter blockers – cell-based, membrane potential dye, duplicate, confirmation (AID 493221); conditions: CHT-expressing cells, at 10 µM, LV-to-AA substituted CHT, HEK293 cells

SMILES | inhibition
CC1=NCCc2c1[nH]c1ccccc21.O=[N+]([O-])c1cc([N+](=O)[O-])c(O)c([N+](=O)[O-])c1 | active: 42.9%
O=[N+]([O-])c1cc([N+](=O)[O-])c(Nc2ccccn2)c([N+](=O)[O-])c1 | active: 68.7%
